The values below are quoted from earlier work in patent publication US10588879B2, “Treatment of age-related macular degeneration” (Aurin Biotech Inc., priority 2011, dated 2020).

This data set has as its system paroxysmal nocturnal hemoglobinemia. The following applies: paroxysmal nocturnal hemoglobinemia patients; cited from earlier work.

B1: eculizumab: humanized monoclonal antibody which blocks C5 conversion of the alternative pathway (antibody, chains of the INN, looked up)
heavy: QVQLVQSGAEVKKPGASVKVSCKASGYIFSNYWIQWVRQAPGQGLEWMGEILPGSGSTEYTENFKDRVTMTRDTSTSTVYMELSSLRSEDTAVYYCARYFFGSSPNWYFDVWGQGTLVTVSSASTKGPSVFPLAPCSRSTSESTAALGCLVKDYFPEPVTVSWNSGALTSGVHTFPAVLQSSGLYSLSSVVTVPSSNFGTQTYTCNVDHKPSNTKVDKTVERKCCVECPPCPAPPVAGPSVFLFPPKPKDTLMISRTPEVTCVVVDVSQEDPEVQFNWYVDGVEVHNAKTKPREEQFNSTYRVVSVLTVLHQDWLNGKEYKCKVSNKGLPSSIEKTISKAKGQPREPQVYTLPPSQEEMTKNQVSLTCLVKGFYPSDIAVEWESNGQPENNYKTTPPVLDSDGSFFLYSRLTVDKSRWQEGNVFSCSVMHEALHNHYTQKSLSLSLG
light: DIQMTQSPSSLSASVGDRVTITCGASENIYGALNWYQQKPGKAPKLLIYGATNLADGVPSRFSGSGSGTDFTLTISSLQPEDFATYYCQNVLNTPLTFGQGTKVEIKRTVAAPSVFIFPPSDEQLKSGTASVVCLLNNFYPREAKVQWKVDNALQSGNSQESVTEQDSKDSTYSLSSTLTLSKADYEKHKVYACEVTHQGLSSPVTKSFNRGEC
For the molecule B1, the “cases in which treatment is effective” value was 49%.
